Assays:
Design in all cases: scale not given: the % may be the effect or the level left
[1] = target: T1, Acetylcholinesterase (Rattus norvegicus) (UniProt P37136); assay: Reactivation of 1 mM tabun-inhibited rat brain AchE
T1 sequence (whole entry): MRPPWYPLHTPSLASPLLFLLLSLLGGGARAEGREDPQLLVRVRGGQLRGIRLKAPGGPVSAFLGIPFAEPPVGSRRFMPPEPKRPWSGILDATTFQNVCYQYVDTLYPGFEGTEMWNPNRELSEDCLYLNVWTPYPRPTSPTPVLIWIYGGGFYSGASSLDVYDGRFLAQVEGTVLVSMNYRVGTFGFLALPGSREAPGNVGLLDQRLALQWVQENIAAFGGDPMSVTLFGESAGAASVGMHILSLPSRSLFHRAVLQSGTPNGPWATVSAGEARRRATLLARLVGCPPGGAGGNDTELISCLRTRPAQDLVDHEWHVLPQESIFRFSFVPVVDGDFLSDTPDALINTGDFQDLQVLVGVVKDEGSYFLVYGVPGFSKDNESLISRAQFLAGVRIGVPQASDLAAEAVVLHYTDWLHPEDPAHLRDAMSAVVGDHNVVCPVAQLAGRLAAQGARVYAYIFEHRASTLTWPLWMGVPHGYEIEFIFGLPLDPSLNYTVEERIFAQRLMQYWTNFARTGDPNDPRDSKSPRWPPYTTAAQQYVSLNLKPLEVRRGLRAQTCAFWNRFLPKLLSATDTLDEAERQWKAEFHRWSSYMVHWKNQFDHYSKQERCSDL

[2] = target: T1, Acetylcholinesterase (Rattus norvegicus); assay: Reactivation of 0.1 uM tabun-inhibited rat brain AchE
[3] = target: T1, Acetylcholinesterase (Rattus norvegicus); assay: Reactivation of 1 mM paraoxon-inhibited rat brain AchE
[4] = target: T1, Acetylcholinesterase (Rattus norvegicus); assay: Reactivation of 0.1 uM paraoxon-inhibited rat brain AchE

In the case of `N/C(=N\O)c1cc[n+](C/C=C/C[n+]2ccc(/C=N\O)cc2)cc1`, the Activity [1] is reported as 14%, the Activity [2] is reported as 9% and the Activity [3] is reported as 52%. For the same molecule, the Activity [4] was 32%.

Work on `O/N=C\c1cc[n+](C/C=C/C[n+]2cccc3ccccc32)cc1` yielded an Activity [1] of 0%, an Activity [2] of 0% and an Activity [3] of 0%. It also gave an Activity [4] of 15%.

Molecule `O/N=C\c1cc[n+](C/C=C/C[n+]2ccc(-c3ccccc3)cc2)cc1` has an Activity [1] of 0%, an Activity [2] of 4% and an Activity [3] of 13%. For the same molecule, the Activity [4] was 22%.

With `CC(C)(C)c1cc[n+](C/C=C/C[n+]2ccc(/C=N\O)cc2)cc1` the Activity [1] was 7%, the Activity [2] was 0% and the Activity [3] was 52%. For the same molecule, the Activity [4] was 14%.

In the case of `O/N=C\c1cc[n+](C/C=C/C[n+]2ccc3ccccc3c2)cc1`, the Activity [1] is reported as 0%, the Activity [2] is reported as 3% and the Activity [3] is reported as 43%. For the same molecule, the Activity [4] was 48%.

In the case of `O/N=C\c1cc[n+](C/C=C/C[n+]2ccccc2)cc1`, the Activity [1] is reported as 4%, the Activity [2] is reported as 0% and the Activity [3] is reported as 57%. For the same molecule, the Activity [4] was 22%.

`O/N=C\c1cc[n+](C/C=C/C[n+]2ccc(Cc3ccccc3)cc2)cc1` gave an Activity [1] of 0%, an Activity [2] of 0% and an Activity [3] of 0%. It also gave an Activity [4] of 14%.

Molecule `O/N=C\c1cc[n+](C/C=C/C[n+]2ccc(/C=N/O)cc2)cc1` has an Activity [1] of 42% and an Activity [2] of 19%.

`NC(=O)c1cc[n+](COC[n+]2ccccc2/C=N/O)cc1` was tested, and the Activity [4] was 0%.

In the case of `O/N=C\c1cc[n+](C/C=C/C[n+]2ccccn2)cc1`, the Activity [1] is reported as 0%, the Activity [2] is reported as 0% and the Activity [3] is reported as 35%. It also gave an Activity [4] of 23%.

In the case of `N#Cc1cc[n+](C/C=C/C[n+]2ccc(/C=N\O)cc2)cc1`, the Activity [1] is reported as 0%, the Activity [2] is reported as 0% and the Activity [3] is reported as 54%. The Activity [4] was 28%.

Work on `Cc1cc[n+](C/C=C/C[n+]2ccc(/C=N\O)cc2)cc1` yielded an Activity [1] of 0%, an Activity [2] of 0% and an Activity [3] of 61%. For the same molecule, the Activity [4] was 26%.

Molecule `O=C(O)c1cc[n+](C/C=C/C[n+]2ccc(/C=N\O)cc2)cc1` has an Activity [1] of 11%, an Activity [2] of 3% and an Activity [3] of 63%. The Activity [4] was 15%.

With `O=C(O)CSc1cc[n+](C/C=C/C[n+]2ccc(/C=N\O)cc2)cc1` the Activity [1] was 0%, the Activity [2] was 0% and the Activity [3] was 13%. For the same molecule, the Activity [4] was 6%.

`CC(=O)c1cc[n+](C/C=C/C[n+]2ccc(/C=N\O)cc2)cc1` gave an Activity [1] of 11%, an Activity [2] of 2% and an Activity [3] of 68%. For the same molecule, the Activity [4] was 36%.

Work on `CCOC(=O)c1cc[n+](C/C=C/C[n+]2ccc(/C=N\O)cc2)cc1` yielded an Activity [1] of 9%, an Activity [2] of 2% and an Activity [3] of 68%. It also gave an Activity [4] of 30%.

`OCc1cc[n+](C/C=C/C[n+]2ccc(/C=N\O)cc2)cc1` showed an Activity [1] of 2%, an Activity [2] of 0% and an Activity [3] of 50%. For the same molecule, the Activity [4] was 42%.

Reference: ChEMBL document CHEMBL1137446, “Monooxime reactivators of acetylcholinesterase with (E)-but-2-ene linker: preparation and reactivation of tabun- and paraoxon-inhibited acetylcholinesterase” (2007)
